The entries are a selection whose mix differs from that of the whole data set. Calls of active or inactive are those of the source.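 The calls were made as follows: active = aptamer displacement above 40%, near three times the noise of non-fluorescent compounds, on plates passing quality checks; inactive = the rest.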
target: Beta-adrenergic receptor kinase 1 (Homo sapiens) (UniProt P25098); assay: RNA aptamer-GRK2 binding blockers – biochemical, cherry pick 1, bead flow cytometry, confirmation (AID 504451); settings: bead-bound GRK2, FAM-aptamer displacement, at 10 µM, stronger effect = higher value;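 also: negative values mostly reflect intrinsic compound fluorescence rather than true enhancement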

Amino acid sequences for entries named in this document (tags omitted).
UniProt P25098, whole entry: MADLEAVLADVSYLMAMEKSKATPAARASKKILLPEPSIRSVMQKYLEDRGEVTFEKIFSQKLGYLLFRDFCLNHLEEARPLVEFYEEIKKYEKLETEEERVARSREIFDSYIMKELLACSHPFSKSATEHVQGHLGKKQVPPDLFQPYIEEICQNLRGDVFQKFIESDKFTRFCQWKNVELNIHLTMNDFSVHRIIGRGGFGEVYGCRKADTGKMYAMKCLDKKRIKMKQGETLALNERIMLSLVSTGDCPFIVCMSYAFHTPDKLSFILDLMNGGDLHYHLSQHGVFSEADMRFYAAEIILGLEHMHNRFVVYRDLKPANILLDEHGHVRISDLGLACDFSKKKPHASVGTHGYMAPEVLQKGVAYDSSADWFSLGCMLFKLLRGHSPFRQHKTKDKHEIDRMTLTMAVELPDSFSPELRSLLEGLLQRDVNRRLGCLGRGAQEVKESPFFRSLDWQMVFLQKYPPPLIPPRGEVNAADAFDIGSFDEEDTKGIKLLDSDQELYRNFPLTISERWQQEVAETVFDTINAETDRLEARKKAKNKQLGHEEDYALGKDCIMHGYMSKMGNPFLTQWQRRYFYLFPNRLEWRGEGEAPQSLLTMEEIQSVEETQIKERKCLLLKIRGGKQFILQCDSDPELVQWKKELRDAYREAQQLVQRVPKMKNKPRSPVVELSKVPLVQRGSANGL

Row | SMILES | aptamer displacement
1 | CC(C)(C)OC(=O)N1CCC(N(C(=O)c2ccccc2)c2ccc(Cl)cc2)CC1 | inactive: 3.45%

— PubChem BioAssay AID504451 (NMMLSC, 2011)
